Test: Solubility of testosterone undecanoate in excipients and SNEDDS mixtures
Conditions: testosterone undecanoate dissolved to saturation in the listed excipient or mixture; stirred overnight at room temperature (solid fats 40° C.); HPLC

sorbitan oleate [SPAN 80]
Solubility: 130.4 mg/mL

— patent publication US9925200B2, “Stable formulations of testosterone undecanoate” (Merck Sharp & Dohme B.V., priority 2014, dated 2018)
